Reported properties for industrial, environmental and drug-like chemicals

Source: data files of OPERA 2.9 (Mansouri et al.), github.com/kmansouri/OPERA.

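OPERA's authors assembled the values from existing databases and did not measure them anew. The files give a single number for a compound and property, which may rest on several reports. How each value was measured is not recorded, so precision varies. The measured form (salt, isomer or mixture) is not always the one drawn. Some entries may be limits or estimates that an upstream database listed as plain numbers.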

Melting points are in °C. Boiling points are in °C, nominally at 760 mmHg. logP is the log10 of the octanol-water partition coefficient; higher is more lipophilic. Water solubility is log10 of mol/L, nominally at 25 °C; higher is more soluble. Vapor pressures (log10 mmHg) refer to near room temperature, 15 to 30 °C; higher is more volatile. The unbound fraction in human plasma runs from 0 (all bound) to 1 (all free). Clint is human hepatic intrinsic clearance in µL/min per million cells; 0 means that no clearance was seen. Cells with "n/a" have no entry in this list.

MP (°C),boiling point (°C),log Kow,water solubility (log10 mol/L),log vapor pressure (log10 mmHg),fu,Clint (µL/min/10^6 cells),structure (SMILES),name
n/a,n/a,n/a,-4.661,-4.606,n/a,n/a,CCCCCCCCCCCCCN(CC(C)O)CC(C)O (stereo not given),"1,1'-(Tridecylimino)bis-2-propanol"
n/a,n/a,1.45,n/a,-6.357,n/a,n/a,CC(=O)CC(=O)Nc1ccc(C)cc1C,"N-(2,4-Dimethylphenyl)-3-oxobutanamide"
-14.3,280,2.7,-4.192,-6.745,n/a,n/a,CCOC(=O)C(C)(O)c1ccc(Oc2ccccc2)cc1 (stereo not given),Ethyl 2-(4-phenoxyphenyl)lactate
n/a,n/a,4.87,-7.093,n/a,n/a,n/a,CC(C)(C)CC(C)(C)c1cc(O)c(C(C)(C)CC(C)(C)C)cc1O,"2,5-Bis(1,1,3,3-tetramethylbutyl)hydroquinone"
259.7,n/a,2.84,-6.172,n/a,n/a,n/a,CC(=O)OCC(=O)[C@H]1[C@H](C)C[C@H]2[C@@H]3C[C@H](F)C4=CC(=O)CC[C@]4(C)[C@H]3[C@@H](O)C[C@@]21C,n/a
n/a,232.5,n/a,-2.516,-1.101,n/a,n/a,C[C@@H]1[C@@H](CN)C[C@H]2C[C@@H]1C2(C)C,n/a
n/a,n/a,5.9,-4.643,n/a,0.35,n/a,CC=C(C(=CC)c1ccc(O)cc1)c1ccc(O)cc1,Dienestrol
n/a,n/a,n/a,-2.243,-6.745,n/a,n/a,N#CC1(N2CCCCC2)CCN(Cc2ccccc2)CC1,"1'-(Phenylmethyl)-(1,4'-bipiperidine)-4'-carbonitrile"
n/a,n/a,4.24,-4.652,n/a,n/a,n/a,CCCCCCCCCc1cc2ccccc2c(S(=O)(=O)[O-])c1CCCCCCCCC.CCCCCCCCCc1cc2ccccc2c(S(=O)(=O)[O-])c1CCCCCCCCC.[Mg+2],"Naphthalenesulfonic acid, dinonyl-, magnesium salt (2:1)"
230.3,n/a,n/a,-5.085,-9.284,n/a,n/a,CC1(C)CC2(CC(C)(C)N1)OC1(CCCCCCCCCCC1)NC2=O,n/a
n/a,n/a,-0.099,-2.053,n/a,n/a,n/a,O=S(=O)([O-])c1ccc(/N=N/c2c(O)ccc3cc(S(=O)(=O)[O-])ccc23)cc1.[Na+].[Na+],FD&C Yellow 6
n/a,n/a,n/a,-7.171,-5.37,n/a,n/a,C=CC(=O)OCCCCCCCCCCCCCCCC,Hexadecyl acrylate
266,n/a,n/a,-7.131,-9.319,n/a,n/a,CC1(C)c2ccccc2-c2ccc(N(c3ccccc3-c3ccccc3)c3cccc4c3-c3ccccc3C43c4ccccc4-c4ccccc43)cc21,n/a
n/a,n/a,1.33,n/a,-2.422,n/a,n/a,O=C(CS)OCCOC(=O)CS,"Ethane-1,2-diyl bis(sulfanylacetate)"
n/a,n/a,4.4,n/a,-1.264,n/a,n/a,C=CC(C)(CCC=C(C)CC)OC(C)=O (stereo not given),"1,6-Nonadien-3-ol, 3,7-dimethyl-, 3-acetate"
n/a,n/a,n/a,-3.304,-7.911,n/a,n/a,CCN1CCN(C(=O)N[C@@H](C(=O)N[C@@H]2C(=O)N3[C@@H]2SC(C)(C)[C@@H]3C(=O)O)c2ccccc2)C(=O)C1=O,n/a
n/a,n/a,0.85,-1.85,-6.182,n/a,n/a,CC(=O)CC(=O)Nc1ccccc1C,N-(2-Methylphenyl)-3-oxobutanamide
n/a,n/a,0.55,n/a,-3.222,n/a,n/a,CCc1ncc[nH]1,"1H-Imidazole, 2-ethyl-"
n/a,n/a,n/a,n/a,n/a,0.07,4.222,CC(c1cc2ccccc2s1)N(O)C(N)=O (stereo not given),Zileuton
n/a,n/a,-1.47,n/a,-2.162,n/a,n/a,OCCN1CCNCC1,1-Piperazineethanol
n/a,n/a,3.9,-4.567,-3.347,n/a,n/a,CC(COC(=O)c1ccccc1)OC(=O)c1ccccc1 (stereo not given),Propylene glycol dibenzoate
n/a,n/a,1.5,-2.44,n/a,0.36,n/a,CCn1nc(C(=O)O)c(=O)c2cc3c(cc21)OCO3,Cinoxacin
n/a,n/a,0.225,n/a,-0.45,n/a,n/a,CC(N)c1ccccc1 (stereo not given),(1-Aminoethyl)benzene

A selection of 2 entries from above:

{"smiles": "CC(=O)OCC(=O)[C@H]1[C@H](C)C[C@H]2[C@@H]3C[C@H](F)C4=CC(=O)CC[C@]4(C)[C@H]3[C@@H](O)C[C@@]21C", "MP (°C)": "259.7", "log Kow": "2.84", "water solubility (log10 mol/L)": "-6.172"}
{"smiles": "CC1(C)CC2(CC(C)(C)N1)OC1(CCCCCCCCCCC1)NC2=O", "MP (°C)": "230.3", "water solubility (log10 mol/L)": "-5.085", "log vapor pressure (log10 mmHg)": "-9.284"}